According to PubChem BioAssay AID652039 (The Scripps Research Institute Molecular Screening Center, 2013):
The list shows a part of the results, in another mix than the full data. Calls of active or inactive are those of the source.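 Rule for the calls: active = activation above the mean of all tested compounds plus 3 SD, computed per campaign excluding outliers beyond control limits (cut at about 13% in these data); inactive = the rest.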

Sequences of proteins named here, by UniProt entry; tags and fusion partners are left off.
UniProt P49862, whole entry: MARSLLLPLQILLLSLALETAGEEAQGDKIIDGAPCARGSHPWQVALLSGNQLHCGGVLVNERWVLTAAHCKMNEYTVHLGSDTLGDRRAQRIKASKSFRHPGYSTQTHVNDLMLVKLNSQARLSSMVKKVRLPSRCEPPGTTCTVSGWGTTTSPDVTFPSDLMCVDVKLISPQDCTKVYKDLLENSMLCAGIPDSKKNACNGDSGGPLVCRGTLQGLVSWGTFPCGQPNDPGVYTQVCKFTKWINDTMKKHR

Molecular target: Kallikrein-7 (Homo sapiens) (UniProt P49862)
Assay: activation of human kallikrein-7 proenzyme – biochemical, fluorescence intensity, primary screen (AID 652039)
Conditions: purified proKLK7, EDANS-DABCYL substrate fluorescence; at 7 µM; active compounds read high; 100% is mature enzyme control, 0% vehicle

| SMILES | activation |
| --- | --- |
| ClCCSc1nnc(-c2cccnc2)o1 | inactive: -0.12% |
